We go through one compound from PMC6852796 (Asian Pacific Journal of Cancer Prevention : APJCP, 2019).

Sequences of proteins named here, by UniProt entry; tags and fusion partners are left off. A change or cut given only in a name is not applied to a line headed by its entry.
UniProt P22411: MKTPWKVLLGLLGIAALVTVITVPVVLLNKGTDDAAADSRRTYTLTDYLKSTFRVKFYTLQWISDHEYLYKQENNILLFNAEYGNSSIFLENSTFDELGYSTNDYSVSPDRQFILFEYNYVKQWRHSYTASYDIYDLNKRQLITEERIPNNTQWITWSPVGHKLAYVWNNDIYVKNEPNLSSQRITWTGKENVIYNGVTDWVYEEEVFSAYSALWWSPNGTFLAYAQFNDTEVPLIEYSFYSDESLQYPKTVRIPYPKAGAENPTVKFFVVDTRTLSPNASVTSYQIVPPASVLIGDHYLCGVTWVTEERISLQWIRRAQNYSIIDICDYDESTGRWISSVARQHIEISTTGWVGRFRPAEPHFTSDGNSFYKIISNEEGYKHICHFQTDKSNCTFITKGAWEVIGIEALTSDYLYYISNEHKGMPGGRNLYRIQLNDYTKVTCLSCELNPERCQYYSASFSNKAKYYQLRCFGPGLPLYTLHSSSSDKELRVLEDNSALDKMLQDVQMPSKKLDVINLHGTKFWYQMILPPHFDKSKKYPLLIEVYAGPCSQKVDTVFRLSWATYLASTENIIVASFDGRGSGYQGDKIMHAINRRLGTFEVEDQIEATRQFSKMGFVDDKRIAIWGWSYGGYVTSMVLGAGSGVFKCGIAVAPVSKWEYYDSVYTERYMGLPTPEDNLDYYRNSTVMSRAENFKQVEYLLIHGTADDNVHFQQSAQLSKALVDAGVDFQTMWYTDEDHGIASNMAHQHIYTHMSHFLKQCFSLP

Usually IC50 stands for the concentration that inhibits the measured activity by half. A high value points to weaker potency in that assay.

“And” between values parts separate entries of the source, which are not always exact repeats. Equal values may be shown once.

The test deals with DPPIV from porcine kidney (Sus scrofa, UniProt P22411). The test can be described thus: DPP IV inhibition in vitro. Format: biochemical. The following applies: DPP4-IC50 value, tested 0.01-100 µg/mL.

As to `CC[C@H](C)[C@H](N)C(=O)N1CCC[C@H]1C(=O)N[C@H](C(=O)O)[C@@H](C)CC` [Diprotin-A, Ile-Pro-Ile], the IC50 is 5.14 µM and 5.15 µM.
